Measured values as given in US20240082215A1, “USE OF MGLUR5 ANTAGONISTS FOR TREATING GAMBLING DISORDER” (published 2024).

Test system: nucleus accumbens (NAcc)/ventral striatum (VS)
Experiment: fMRI monetary incentive delay task (MIDT), between-subject, placebo-controlled
Details: 90 min prior to fMRI

## COC(=O)N1CC[C@@H]2[C@H]1CCC[C@@]2(O)C#Cc1cccc(C)c1
AUD family history negative (FHN) individuals, 200 mg mavoglurant one time, modified release formulation, vs placebo
  fMRI signal in left and right NAcc/VS, A1 phase of the MIDT, response to losses, FHN individuals: essentially unresponsive to drug
AUD family history positive (FHP) individuals, 200 mg mavoglurant one time, modified release formulation, vs placebo, interaction p<0.001, uncorrected
  fMRI signal in left and right NAcc/VS, A1 phase of the MIDT, response to losses, FHP individuals: reduced by mavoglurant in FHP individuals to levels equivalent to or below those of FHN individuals
FHP individuals, 200 mg one time, p<0.001
  circuit activity (neural activity) in FHP individuals compared with FHN individuals on placebo: appears to “normalize” circuit activity in FHP individuals
